Test results reported in patent US20210138080A1, “CONJUGATES” (GLYKOS BIOMEDICAL OY, priority 2018, published 2021).

System: NCI-N87 cancer cell line tumors
Assay: in vivo trial, cancer cell xenografts on chicken egg chorioallantoic membrane (CAM): tumor weight
Settings: repeated dose
Protocol: The study was performed by Inovotion SAS (La Tronche, France). Fertilized chicken eggs were incubated at 37.5° C. with 50% relative humidity for 9 days (E9), when the chorioallantoic membrane (CAM) was dropped down by drilling a small hole through the eggshell into the air sac, and a 1 cm^2 window was cut in the eggshell above the CAM. The NCI-N87 cell line was cultivated in RPMI-1640 medium supplemented with 10% FBS and 1% penicillin/streptomycin. On day E9, cells were detached by trypsin, washed with complete medium and suspended in graft medium. An inoculum of 2 million cells was added onto the CAM of each egg. […] Living grafted eggs were randomized into groups and were then treated on day E10, E11.5, E13, E14.5 and E17 (five doses) by dropping 100 μl of vehicle (PBS) and compounds (alone or in combination) onto the tumor. On day 18 (E18) the upper portion of the CAM was removed, washed in PBS and then directly transferred in PFA (fixation for 48 h). The tumors were then carefully cut away from normal CAM tissue and weighed. Eggs were checked at each treatment time, or at least every two days, for viability during the study. At the end of the study, the number of dead embryos was counted and combined with the observation of eventual visible macroscopic abnormalities (observation done during the sample collection) to evaluate the toxicity.

With `OC[C@H]1O[C@@H](S[C@@H]2O[C@H](CO)[C@H](O)[C@H](n3cc(-c4cccc(F)c4)nn3)[C@H]2O)[C@H](O)[C@@H](n2cc(-c3cccc(F)c3)nn2)[C@H]1O` [33DFTG, 3,3′-dideoxy-3,3′-bis-[4-(3-fluorophenyl)-1H-1,2,3-triazol-1-yl]-1,1′-sulfanediyl-di-β-D-galactopyranoside] as the compound, how does the “tumor size / therapeutic efficacy compared to control group (in words)” value read?
The value was “neither pembrolizumab alone or 33DFTG alone showed significant difference”.
